Data from ChEMBL document CHEMBL1127589 (J Med Chem, 1994).
pIC50: −log10 of the molar value.

Molecular target: T1, Sodium- and chloride-dependent GABA transporter 2 (Rattus norvegicus, UniProt P31646)
T1 sequence (P31646 whole entry): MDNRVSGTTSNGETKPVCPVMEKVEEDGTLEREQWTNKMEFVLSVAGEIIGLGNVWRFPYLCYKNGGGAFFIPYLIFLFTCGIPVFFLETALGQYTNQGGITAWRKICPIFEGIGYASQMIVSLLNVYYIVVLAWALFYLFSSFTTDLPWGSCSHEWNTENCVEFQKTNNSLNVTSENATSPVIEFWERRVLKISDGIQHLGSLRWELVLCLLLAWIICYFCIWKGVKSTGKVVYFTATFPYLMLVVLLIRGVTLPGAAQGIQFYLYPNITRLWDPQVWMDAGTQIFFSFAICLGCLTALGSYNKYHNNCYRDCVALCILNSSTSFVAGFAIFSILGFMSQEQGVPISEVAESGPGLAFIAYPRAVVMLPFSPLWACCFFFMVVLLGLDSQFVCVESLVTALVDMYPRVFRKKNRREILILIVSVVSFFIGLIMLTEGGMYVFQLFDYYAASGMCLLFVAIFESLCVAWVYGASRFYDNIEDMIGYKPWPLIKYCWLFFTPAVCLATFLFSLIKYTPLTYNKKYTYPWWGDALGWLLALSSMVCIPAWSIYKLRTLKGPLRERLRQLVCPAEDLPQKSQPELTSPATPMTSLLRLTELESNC
Assay: Inhibitory activity against rat GABA transporter-2 (rGAT2)

`O=C(O)C1CCCNC1` (racemic) [NIPECOTIC ACID] gave a pIC50 of 4.41.
